# Assay results published in ChEMBL document CHEMBL1125543, “Urea and 2-imidazolidone derivatives of the muscarinic agents oxotremorine and N-methyl-N-(1-methyl-4-pyrrolidino-2-butynyl)acetamide” (J Med Chem, 1992).
# What was measured:
# [1] = biological target: Muscarinic acetylcholine receptor M3 (Cavia porcellus) (UniProt Q8VH26); assay: Maximum contractile response relative to carbachol (E max) in guinea pig ileum as muscarinic acetylcholine receptor M3 agonistic/antagonistic activity; assay type: functional, tissue-based
# [2] = biological target: Muscarinic acetylcholine receptor M3 (Cavia porcellus) (UniProt Q8VH26); assay: Relative efficacies determined with oxotremorine as the reference in guinea pig ileum, as a measure of muscarinic acetylcholine receptor M3 agonistic activity; assay type: functional, tissue-based
compound,measurement,setting,value
CC1CCN(CC#CCN2CCCC2)C1=O (configuration not stated),Emax,[1],1
same,Efficacy,[2],0.1
